Source: PubChem
This is a sample that favours compounds with a hit; in the whole collection about 1.3% have one here.
ERG-DNA inh – ERG Ets/DNA interaction inhibition | fluorescence polarization, His-ERG Ets domain / labelled DNA | Potency, µM (titrated, usually from 76.9 µM), without a hit: top-dose FP activity, negative = inhibition, most hits filed as inhibitors | 0.028% of 370,000 active; active = well fitted inhibition curve with a large enough effect in the polarisation, with a control signal flat; inconclusive = small, poorly fitted or top-dose-only effect, or effect the other way, or a change in a side signal; inactive = no such curve, though single readings can be large or run the other way; the % refers to the polarisation;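 also: polarization taken with two DNA probes labelled with fluorescein and Texas red; potency is read from the fitted curve at half-maximal effect; % of control where 0% means no effect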
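His-tagged ERG Ets domain (1 uM in the protein solution; 300mM KCl, 50mM Tris-HCl, 1mM EDTA, 1mM DTT, pH 7.5) received compound, then a probe mix of 5 nM fluorescein-DNA and 100nM Texas-615-DNA. Fluorescence polarization was read for both dyes.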
Giardia killer – kills Giardia lamblia; Giardia lamblia trophozoite viability; 0.15% of 340,000 active; activity change, % at 7.66 µM, hits read low; AID 540267; in the data active = activity change below about -80%; inconclusive = between about -30% and that limit;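 also: parasites exposed to compound for two days anaerobically before the ATP read; % is scaled to controls: 0 for no effect and ±100 for the full control effect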
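Killing of trophozoites was scored by loss of ATP luminescence after a 48 hrs anaerobic exposure to compounds at 37 deg C, using 100 cells per well.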
12-LOX inh – blocks human arachidonate 12S-lipoxygenase; Potency, µM (series often up to 108 µM), inactives show at the top dose activity change, negative = inhibition, actives largely listed as inhibitors; P18054; purified 12hLO, xylenol orange hydroperoxide absorbance; 1.1% of 580,000 active; also: potency is read from the fitted curve at half-maximal effect; % is scaled to controls: 0 for no effect and ±100 for the full control effect
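Hydroperoxide product was detected by ferrous iron/xylenol orange as the 573 to 405 nm absorbance ratio. Arachidonic acid at 40 uM (final) was turned over for 30 min at room temperature by 150 nM human 12hLO, pH 7.0 Hepes buffer, after 15 min compound preincubation.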
PINK1 modulator – changes PINK1 expression | PINK1 immunofluorescence, high-content cytometry, 24 h | Potency, µM (titrated, usually from 76.6 µM), for inactives: at the top dose activation (PINK1 increase), most hits filed as activators | 0.2% of 410,000 active; active = well fitted activation curve with a large enough effect; inconclusive = small, poorly fitted or top-dose-only effect; cell line not stated here; also: potency is read from the fitted curve at half-maximal effect; % of control where 0% means no effect; nearly all actives have a fitted effect of over 65% in size
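A stable cell line was treated with compounds at 5 concentrations for 24 hours, with CCCP as control. PINK1 levels and mitochondrial localization were measured by immunofluorescence with mitochondrial, cell and nuclear markers after fixation, read by laser-scanning cytometry.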
PTHR1 ag – agonists of human PTHR1 parathyroid hormone receptor; Potency, µM (series often up to 115 µM), for inactives: at the top dose activation, hits mostly activators; Q03431; HEK293 GP2 PTHR1 cells, GloSensor cAMP luminescence, 1 h; 0.075% of 410,000 active; also: potency is read from the fitted curve at half-maximal effect; nearly all actives have a fitted effect of over 55% in size
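HEK-293-derived GP2 cells expressing PTHR1 and a GloSensor cAMP reporter, 3,000/well, plated overnight, given luciferin plus IBMX (each 0.5 mM as added) for 1 h at 37 °C, then compound for 1 h at 37 °C. Luminescence was read after 15 min at room temperature.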
miR-21 reporter – raises the signal of a miR-21 reporter; AID 2288; 340,000 tested, under 10 active; Potency, µM (doses to about 38.3 µM), inactives show at the top dose reporter change, positive = more light; HeLa miR-21 FLuc reporter, luciferase, 48 h; active = well fitted rising curve with a large enough effect; inconclusive = small, poorly fitted or top-dose-only effect; inactive = no such curve, though single readings can be large or run the other way;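 note: % of control where 0% means no effect; miR-21 action dims this reporter so a rising signal means less miR-21 action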
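Luminescence from a firefly luciferase reporter carrying a miR-21 binding site downstream, stably expressed under a CMV promoter in HeLa cells that make miR-21 endogenously, reports miRNA modulation after 48 h compound exposure up to approximately 40uM final.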
Active calls of the source: *; i = inactive; ? = inconclusive; nt = no result given; ! = repeats disagree; [ ] = dose if it differs, or a comment. Unless noted, calls follow the shape of the dose curve; as a rule, active = well fitted curve in the direction sought with a large enough effect; inconclusive = small, poorly fitted or top-dose-only effect, or another doubt; inactive = no such curve, though single readings can be large; an effect the other way counts as inactive or inconclusive.

SMILES	ERG-DNA inh	Giardia killer	12-LOX inh	PINK1 modulator	PTHR1 ag	miR-21 reporter
Cc1cc2nn(-c3ccc(Cl)cc3)nc2cc1N	-4%	-11	7.1µM*	1%	-88%	-21%
CCCC/C(C)=N/NC(=S)Nc1ccccc1	nt	nt	6.3µM*	nt	nt	nt
CCOc1ccc(NC(=O)c2cc(CN3CCCC3)on2)cc1	0%	nt	-6%	1%	-6%	-12%
O=C(CCCCCN1C(=O)c2cccc3cccc(c23)C1=O)NO	nt	nt	3.5µM*	nt	nt	nt
O=C(CCCCCN1C(=O)c2cccc3cccc(c23)C1=O)NCCCO	4%	-3	0%	0%	i	-13%
Cc1nc(-c2cccs2)c(CC(=O)N2CCc3ccccc3C2)s1	nt	nt	8.9µM*	nt	nt	nt
Cc1nc(-c2cccs2)c(CC(=O)N2CCN(c3cccc(Cl)c3)CC2)s1	nt	nt	2%	nt	nt	nt
O=C1CCCC(O)=C1N=Nc1ccc(C(=O)O)cc1	28µM*	0	?	-1%	i	1%
Cc1ccc(C)c(C(=O)N[C@@H]2CN(c3ncccn3)C[C@H]2CN(C)C)c1	nt	nt	11%	nt	nt	nt
COc1ccc2c(c1OC)C(=O)N1c3ccccc3C(=O)N(c3ccccc3)C21 (stereo not given)	2%	11	192%	-1%	-15%[57.5 µM]	20%
COc1ccc(-c2c(C#N)c(SCc3c(C)noc3C)nc3c2C(=O)CC(C)(C)C3)cc1	4%	5	7%	13%	-25%	-7%
O=C(Nc1ccc(Cl)cc1)C1CCN(S(=O)(=O)c2ccc(Br)s2)CC1	6%	nt	?	18µM*	-17%	?
Cc1ccc2nc(-c3ccc(F)cc3)c(Cc3cccc(Cl)c3)n2c1	nt	nt	-6%	?	-2%	nt
Cc1cccc(C(=O)NC(=S)Nc2ccc(N3CCOCC3)cc2)c1	-1%	-18	45µM*	-1%	-36%	-18%
O=C(NC(=S)Nc1cccc(C(F)(F)F)c1)c1ccc2nonc2c1	-1%	0	35µM*	17%	-29%	23%
Cc1ccc(C(=O)NC(=S)Nc2ccc(N3CCOCC3)cc2)cc1C	-1%	5	18µM*	1%	-23%	-17%
CC(=O)c1cccc(NC(=S)NC(=O)c2cccc(C)c2)c1	0%	-4	32µM*	0%	-24%	-47%
CC(C)(C)c1ccc(C(=O)NC(=S)Nc2ccc(N3CCOCC3)cc2)cc1	10%	6	?	11%	-20%	3%
CCCCNC(=O)[C@H]1C[C@H]1[C@@H](O)[C@H](CO)NC(=O)[C@H](Cc1ccccc1)NC(=O)OC(C)(C)C	2%	-7	0%	0%	i	1%
CC(=O)Nc1ccc(NC(=O)C(C)OC(=O)c2oc3ccccc3c2C)cc1 (stereo not given)	0%	-13	-19%	16%	i	nt

Complete entries, quoted from the list.
Results for Cc1cccc(C(=O)NC(=S)Nc2ccc(N3CCOCC3)cc2)c1 = ERG-DNA inh = -1%; Giardia killer = -18; 12-LOX inh = 45µM*; PINK1 modulator = -1%; PTHR1 ag = -36%; miR-21 reporter = -18%
Results for Cc1nc(-c2cccs2)c(CC(=O)N2CCc3ccccc3C2)s1 = ERG-DNA inh = nt; Giardia killer = nt; 12-LOX inh = 8.9µM*; PINK1 modulator = nt; PTHR1 ag = nt; miR-21 reporter = nt

Reprinted at random: 2 records from the list.
SMILES	ERG-DNA inh	Giardia killer	12-LOX inh	PINK1 modulator	PTHR1 ag	miR-21 reporter
O=C(CCCCCN1C(=O)c2cccc3cccc(c23)C1=O)NO	nt	nt	3.5µM*	nt	nt	nt
O=C(Nc1ccc(Cl)cc1)C1CCN(S(=O)(=O)c2ccc(Br)s2)CC1	6%	nt	?	18µM*	-17%	?

Other results.
SMILES	ERG-DNA inh	Giardia killer	12-LOX inh	PINK1 modulator	PTHR1 ag	miR-21 reporter
COc1ccc(C(=O)NC(=S)Nc2ccc(N3CCOCC3)cc2)cc1Cl	-3%	10	16µM*	1%	-14%	17%
Cc1ccc(N/N=C/c2ccc(N3CCOCC3)cc2)cc1C	0%	-5	8.9µM*	-2%	-2%[57.5 µM]	-53%
Cc1ccc(/C=N/Nc2cc(C)nc(N3CCOCC3)n2)cc1	-28%	-8	0%	10%	-17%	-2%
Cc1cccc(C(=O)NC(=S)NNC(=O)COc2ccc(Cl)cc2)c1	12%	-5	35µM*	21%	-9%	-12%
O=C(NC(=S)Nc1ccc(N2CCOCC2)cc1)c1ccc(Cl)cc1	-6%	8	-10%	18%	-29%	-5%
O=C(Cn1cnc2c(nnn2Cc2ccccc2)c1=O)NCc1ccccc1Cl	-3%	44	1%	1%	-3%	1%
Cc1ccc(S(=O)(=O)NCCc2csc3nc(-c4ccccc4F)nn23)cc1C	-2%	nt	?	1%	i	7%
CCOC(=O)N1CCN(C(=O)C[C@H]2C[C@@]3(C(=O)OC)C(=C[C@H](C(C)C)O[C@@H]3C3CC3)N(Cc3ccccc3)C2=O)CC1	nt	nt	6%	nt	nt	nt
COC(=O)c1c(C)[nH]c(-c2csc(NC3CC3)n2)c1C	nt	nt	32µM*	nt	nt	nt
COc1ccc(CCCc2nnc(SCC(=O)Nc3ccc(C)cc3)o2)cc1C	0%	nt	18µM*!	2%	-33%	-2%
COc1cc(Cl)c(NC(=O)c2cc(S(=O)(=O)N3CCOCC3)cn2C)c(OC)c1	3%	nt	-14%	4%	i	-14%
CC(C)(C)S(=O)(=O)/C(C#N)=N/Nc1ccc(Cl)cc1	-2%	2	?	28µM*	-37%	?
CC(C)(C)c1ccc(N/N=C(\C#N)S(=O)(=O)C(C)(C)C)cc1	3%	4	-16%	40µM*	-24%	23%
Cc1cccc(N/N=C(\C#N)S(=O)(=O)C(C)(C)C)c1	18%	-11	?	3%	-34%	1%
Cc1cc(C)n(CC(=O)NC2CCc3nn(CC4CC4)c(=O)n3CC2)c(=O)n1 (stereo not given)	nt	nt	18%	nt	nt	nt
Nc1cnccc1Oc1cccc(C(F)(F)F)c1	10%	-9	1%	2%	-20%	nt
CCOC(=O)c1cn(C)nc1S(=O)(=O)N1CCOCC1	nt	nt	11µM*	nt	nt	nt
CCOC(=O)c1c(S(=O)(=O)N2CCOCC2)nn(CC)c1C	nt	nt	-7%	nt	nt	nt
CN1CCN(c2nc(-c3ccc(Cl)s3)cs2)CC1	10%	?	8.9µM*	2%	-12%	-46%
O=C(c1ccc2c(c1)OCO2)N1CCC2(CC1)NC(=O)N(c1ccccc1Cl)N2	nt	nt	2µM*	nt	nt	nt
O=C(c1ccoc1)N1CCC2(CC1)NC(=O)N(c1ccccc1Cl)N2	nt	nt	1.3µM*	nt	nt	nt
COc1ccc(Cl)cc1C(=O)N1CCC2(CC1)NC(=O)N(c1ccccc1)N2	nt	nt	1.8µM*	nt	nt	nt
COc1ccc(C(=O)N2CCC3(CC2)NC(=O)N(c2ccccc2Cl)N3)cc1	nt	nt	2.2µM*	nt	nt	nt
COc1ccc(Cl)cc1C(=O)N1CCC2(CC1)N(c1ccccc1)C(=O)CS2(=O)=O	nt	nt	20%	nt	nt	nt
O=C(c1ccccc1)c1ccc(C(=O)N2CCN(c3ccccc3Cl)CC2)cc1	-8%	0	-15%	-2%	-46%	nt
CC(=O)NC(Cc1c[nH]c2ccccc12)C(=O)NCC1(c2ccccc2)CC1 (stereo not given)	nt	nt	-7%	nt	nt	nt
COc1cccc(Cn2nnc(C(=O)NCc3ccc4c(c3)OCO4)c2N)c1	8%	5	-6%	0%	-10%	-5%
Cc1ccc(C(=O)N2CCC3(CC2)NC(=O)N(c2ccccc2Cl)N3)cc1C	nt	nt	1.3µM*	nt	nt	nt
COc1ccc(Cl)cc1C(=O)N1CCC2(CC1)NC(=O)N(c1ccccc1Cl)N2	nt	nt	1.8µM*	nt	nt	nt
COc1ccc(C(=O)N2CCC3(CC2)NC(=O)N(c2ccccc2Cl)N3)cc1F	nt	nt	1.3µM*	nt	nt	nt
